Laboratory results reported in publication PMC551613 (BMC Biology, 2005).

The chains behind the UniProt entries cited, without tags or fusion partners. Residues count along the entry.
UniProt P41145, whole entry E297Q: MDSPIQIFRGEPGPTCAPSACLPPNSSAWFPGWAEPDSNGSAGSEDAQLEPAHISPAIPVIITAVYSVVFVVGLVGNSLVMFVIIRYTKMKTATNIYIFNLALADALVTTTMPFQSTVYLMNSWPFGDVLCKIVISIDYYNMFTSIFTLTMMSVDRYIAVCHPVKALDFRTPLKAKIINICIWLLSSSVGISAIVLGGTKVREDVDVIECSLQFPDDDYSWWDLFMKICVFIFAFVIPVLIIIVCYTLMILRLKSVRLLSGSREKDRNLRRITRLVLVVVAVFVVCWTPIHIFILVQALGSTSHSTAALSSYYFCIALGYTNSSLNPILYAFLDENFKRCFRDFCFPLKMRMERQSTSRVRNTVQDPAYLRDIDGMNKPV
UniProt P41145, 1-345 E297Q: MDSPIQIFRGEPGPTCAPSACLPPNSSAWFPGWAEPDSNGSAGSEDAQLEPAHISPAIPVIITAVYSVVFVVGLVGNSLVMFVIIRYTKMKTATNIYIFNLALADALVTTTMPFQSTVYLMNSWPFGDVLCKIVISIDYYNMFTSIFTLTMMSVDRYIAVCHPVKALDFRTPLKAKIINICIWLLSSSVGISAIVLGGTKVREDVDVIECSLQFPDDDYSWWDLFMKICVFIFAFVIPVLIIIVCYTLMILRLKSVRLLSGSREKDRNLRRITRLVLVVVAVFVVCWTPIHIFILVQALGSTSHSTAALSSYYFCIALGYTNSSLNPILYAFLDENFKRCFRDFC

Tests used:
Assay type in all cases: cell-based
[1] = target: T1, Rog (Homo sapiens, UniProt P41145, E297Q, form not given)
[2] = target: Rog-μ (Homo sapiens, UniProt P41145, E297Q, form not given)
[3] = target: T2, Rog-μA (Homo sapiens, UniProt P41145, E297Q, form not given); assay: Cell-surface ELISA (surface expression); conditions: norBNI 10 μM, 18 h, stably transfected HEK293
[4] = target: T1, Rog; remark: listed apart in the source
[5] = target: T2, Rog-μA; assay: Confocal microscopy of GFP-tagged receptor localization; conditions: overnight 10 μM norBNI
[6] = target: T1, Rog; remark: listed apart in the source

Molecule	effect on cell-surface expression [1]	effect on cell-surface expression [2]	effect on cell-surface expression [3]	receptor localization seen by confocal microscopy [4]	receptor localization seen by confocal microscopy [5]	transient calcium response (Gi activation via Gqi5) [6]	receptor internalization seen by confocal microscopy [4]
Oc1ccc2c3c1O[C@H]1c4[nH]c5c(c4C[C@@]4(O)[C@@H](C2)N(CC2CC2)CC[C@]314)C[C@@]1(O)[C@H]2Cc3ccc(O)c4c3[C@@]1(CCN2CC1CC1)[C@H]5O4 [norBNI]	no effect	increased the cell-surface expression of Rog-μ, but to a lesser degree	nearly doubled	little effect on their localization	most of the Rog-μA was seen in the plasma membrane	–	–
dynorphin A 1–13	–	–	–	–	–	but not to a range of doses of dynorphin	did not lead to significant internalization; also recorded: caused little internalization

“Also recorded” adds a separate entry of the source.
